scFv variants of Ab-14 (light chain) against a SARS-CoV-2 spike peptide

Antigen: PDVDLGDISGINAS, a 14-residue peptide of the SARS-CoV-2 spike HR2 region.

The variants keep the heavy chain, the linker and the frameworks of Ab-14 (scFv order VH, the linker GGGGSGGGGSGGGGS, VL).
VH: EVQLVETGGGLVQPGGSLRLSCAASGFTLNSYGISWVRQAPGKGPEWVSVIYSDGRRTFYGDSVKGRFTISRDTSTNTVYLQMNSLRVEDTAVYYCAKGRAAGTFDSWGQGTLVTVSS
VL: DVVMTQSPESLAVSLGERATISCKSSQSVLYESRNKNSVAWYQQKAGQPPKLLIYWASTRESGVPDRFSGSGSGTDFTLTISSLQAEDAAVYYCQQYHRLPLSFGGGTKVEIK

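The parent was found by panning a naive human phage display library on the peptide. This is the validation round: designs drawn from the data on random variants, tested in the same kind of assay. Several design methods are mixed in this list. AlphaSeq pools MATa yeast showing the antibodies with MATalpha yeast showing the peptide. Pairs that bind mate more often; barcode pairs of the diploids are counted by sequencing. The ratio of observed to expected reads was calibrated, replicate by replicate, on BCL2-family standards whose Kd was known from biolayer interferometry. The assay was run in six technical replicates.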

The parent's light chain CDRs are KSSQSVLYESRNKNSVA, WASTRES, QQYHRLPLS; each variant's own CDRs replace them letter for letter. Scale: log10 of Kd in nM, estimated from mating counts; low values are strong binders. Replicates are averaged; those with no signal do not enter the mean. "ND" means that the variant was in the library but no mating with the target was seen in that replicate; the authors take this as a sign of poor binding, and no number exists. The range of this assay differs from that of the first round, and the authors advise against merging the two.

log10 Kd, replicates | mean, log10 nM | CDR-L1 | CDR-L2 | CDR-L3
1.46 / 1.26 / 1.09 / 1.14 / 1.32 / 1.46 | 1.29 | KSSQSVGYESRNKNSVA | AASTRES | QQYHRLPLS
0.12 / 0.08 / 0.11 / -0.32 / -0.05 / 0.20 | 0.02 | KFSQWDLYESRTKNSVA | NASTRES | QQYHRLPLS
0.33 / -0.08 / -0.26 / -0.18 / -0.10 / 0.03 | -0.04 | KSSQPELYESRNKNSVA | DVSTRES | QQYHRLPLS
0.80 / 1.08 / 0.92 / 0.84 / 1.12 / 1.02 | 0.96 | HLSLRLSYGKDLQNAVA | GVQHRMT | QQYARLPLL
1.22 / 1.42 / 1.29 / 1.39 / 1.00 / 1.16 | 1.25 | TIMQMTSSFSQNINNVA | EVSTREK | QQYDRLPLS
0.15 / 0.15 / -0.32 / -0.23 / -0.31 / -0.22 | -0.13 | KLPQSHLYESRNKNSVA | QASQRES | QQYHRLPLS
0.35 / 0.47 / 0.13 / -0.06 / 0.13 / 0.15 | 0.19 | SFSQTVMYSSTMRNNVA | QTSTRES | QQYDRLPLS
-0.43 / -0.14 / -0.49 / -0.80 / -0.48 / -0.48 | -0.47 | KLSQSELYESRNKNSVA | NASTRSS | QQYHRLPLS
0.58 / 0.60 / 0.43 / 0.22 / 0.18 / 0.50 | 0.42 | KSSQSVLGEPRNKNSVA | DASTRES | QQYHRLPLS
0.04 / -0.03 / -0.43 / -0.18 / -0.26 / 0.11 | -0.12 | KQSDSVDQESRNKNSVA | DASTRES | QQYHRLPLS
1.36 / 0.64 / 0.61 / 0.46 / 0.35 / 0.63 | 0.68 | TISQMFLGESRSRNSVA | QASTRES | QSYDRLPLS
ND / ND / 1.03 / ND / 0.62 / 2.42 | 1.36 | KLSQSVLYESRNKNSVA | WASTRES | QQYHRLLLS
0.25 / 0.08 / 0.02 / 0.07 / 0.36 / 0.31 | 0.18 | HIDQVKYEQKTAENNIA | SGAERVW | QQYSRLPFS
ND / ND / ND / ND / ND / ND | ND | KSMQSVSYESRNKNSVA | WASTRES | QQYHRLPLS
1.00 / 0.87 / 0.72 / 0.96 / 1.07 / 1.48 | 1.01 | KFSQSYLYESRNKNSVA | NASTRCS | QQYHRLPLS
0.38 / 1.01 / 0.15 / 0.38 / 0.35 / 0.88 | 0.52 | KLSQSFLYESRNKNSVA | GASTRES | QEYHRLTLS
1.12 / 0.72 / 0.73 / 1.19 / 0.80 / 0.98 | 0.93 | MFNMEVGIEDMKWNSVA | SADVRAF | QQYGRLPFS
1.30 / 1.28 / 0.62 / 1.28 / 1.05 / 1.42 | 1.16 | KTSQSVLYESRNKNNVA | WASTRES | QQYHRLPLS
1.07 / 0.80 / 0.91 / 0.94 / 0.63 / 0.95 | 0.88 | QLEWYNSTLTEAKNSVA | GVEHRMN | QQYMRLPLF
0.88 / 0.53 / 0.57 / 0.55 / 0.83 / 0.95 | 0.72 | KLDQKNRWNGMANYNVA | DSNHRLD | QQYHRLPLI
ND / ND / ND / ND / ND / ND | ND | IVSQLMLWGMHVKNSIA | EAVTRIN | QQYDRLPLF
0.13 / -0.09 / -0.17 / 0.00 / 0.30 / 0.13 | 0.05 | KISQSMLYESRNKNSVA | NASTRMS | QQYHRLPLS
0.36 / 0.48 / 0.21 / 0.14 / 0.43 / 0.45 | 0.35 | KSSQSVDLESRNKNSVA | DASTRES | QQYHRLPLS
1.75 / 1.19 / 0.94 / 0.52 / 0.64 / 0.73 | 0.96 | KLTMITGLEKVIGNNVA | EMETRER | QQYNRLPLS
0.65 / 0.75 / 0.43 / 0.52 / 0.71 / 0.76 | 0.64 | KLSQITGHLSVSKNNVA | EMETRAN | QQYDRLPLS
ND / ND / ND / ND / ND / ND | ND | KSSQSVMYESRNNNSVA | WASTRES | QQYHILPLS
0.38 / 0.30 / 0.29 / 0.30 / 0.30 / 0.64 | 0.37 | KSSMSYLGEKRNKNSVA | EASTRES | QQYHRLPLS
-0.57 / -0.64 / -0.66 / -0.88 / -0.86 / -0.80 | -0.73 | KLSQSCLYESRNKNNVA | DASTRES | QQYHRLPLS
1.97 / 1.84 / 1.67 / 2.12 / 1.78 / 1.84 | 1.87 | KVSSFMRGLRMRTDSIA | DNETRVS | QQYDRLPLS
0.62 / 0.61 / 0.34 / 0.27 / 1.01 / 1.00 | 0.64 | KIEQSMLYEDRNKNSVA | NASQRES | QAYHRLPLS
0.09 / -0.23 / -0.17 / -0.21 / 0.00 / -0.06 | -0.10 | KFEQLWGPEQRNKNSVA | NASQRED | QQYHRLPLS
ND / ND / 0.49 / 1.82 / 3.04 / 1.23 | 1.65 | KSSQSVLYESRNKNSVA | WASTRES | QQYFRLPLS
ND / ND / ND / ND / ND / ND | ND | KSSQSVLYESRNKNSVA | WASTRES | QQYHVLLLS
0.09 / 0.40 / -0.01 / 0.08 / 0.13 / 0.29 | 0.16 | VLSQSVLPESRNKNSVA | SASTRLP | QQYHRLPLS
-0.23 / -0.09 / -0.46 / -0.26 / -0.54 / -0.30 | -0.32 | KLSSSWLMEERNKNSVA | QASQRER | QQYHRLPLS
0.35 / -0.13 / -0.08 / -0.14 / 0.01 / 0.36 | 0.06 | KMSQSELYESRNKNSVA | NASTRLS | QQYHRLPLS
1.55 / ND / 1.56 / ND / ND / ND | 1.55 | KISFNYLIESKNLNSVA | EMTTREY | QDYDRLPLS
1.72 / 1.46 / 1.14 / 1.17 / ND / 1.84 | 1.47 | KLDLENGHEGKKGQNIA | EASTAGD | QSYWRLPLS
ND / ND / ND / 2.17 / ND / 2.76 | 2.46 | KFQGMVMMGDRNKNSVA | WASTRLS | QQYHRLPLS
0.52 / 0.47 / 0.46 / 0.32 / 0.55 / 0.00 | 0.39 | KLSQSDGYEQRNSNSVA | EASTRED | QQYHRLPLS
0.16 / -0.01 / 0.03 / -0.16 / -0.05 / 0.18 | 0.02 | KFSQSNPYEQRNKNSVA | EASQREE | QQYHRLPLS
0.36 / 0.98 / 0.33 / 0.36 / 0.19 / 0.47 | 0.45 | ILSYSELYEDRMKNSVA | NASQREQ | QQYHRLPLS
1.27 / ND / -0.15 / 0.11 / -0.17 / ND | 0.27 | ESSQSVLYFSRNKNSVA | GASTRES | YQYHRLPLS
1.27 / 1.22 / 0.93 / 0.99 / 0.86 / 1.55 | 1.14 | KLMNSLGAFKQSEDNVA | EVEHKVA | QQYDHLPLT
ND / ND / ND / ND / 2.12 / ND | 2.12 | KSSQSALYESRNKNSVA | WASTRES | QQYHRLPLN
1.32 / 1.20 / 1.20 / 0.91 / 1.60 / 1.04 | 1.21 | KIGGVTNGLSFSKNSVA | EQSTRED | QQYDRLPLS
2.36 / ND / 1.03 / 1.10 / 2.71 / 1.58 | 1.75 | MISQLFNMGQFAINSVA | QASQRNA | QQYDRLPLM

Top 5 of the variants detected in all replicates, tightest first:

CDR-L1 | CDR-L2 | CDR-L3 | log10 Kd, replicates | mean, log10 nM
KLSQSCLYESRNKNNVA | DASTRES | QQYHRLPLS | -0.57 / -0.64 / -0.66 / -0.88 / -0.86 / -0.80 | -0.73
KLSQSELYESRNKNSVA | NASTRSS | QQYHRLPLS | -0.43 / -0.14 / -0.49 / -0.80 / -0.48 / -0.48 | -0.47
KLSSSWLMEERNKNSVA | QASQRER | QQYHRLPLS | -0.23 / -0.09 / -0.46 / -0.26 / -0.54 / -0.30 | -0.32
KLPQSHLYESRNKNSVA | QASQRES | QQYHRLPLS | 0.15 / 0.15 / -0.32 / -0.23 / -0.31 / -0.22 | -0.13
KQSDSVDQESRNKNSVA | DASTRES | QQYHRLPLS | 0.04 / -0.03 / -0.43 / -0.18 / -0.26 / 0.11 | -0.12

Three control strains display no target. For all light chain designs, 4% of the pairings with them gave a signal, with a median of 2.64 and one signal in twenty below 1.59, so weak values seen in few replicates may be background. The authors' rule: three or more of the six replicates give a measured affinity, fewer mean a poor binder.

The measurements come from Li et al. 2023 (doi:10.1038/s41467-023-39022-2) through the FLAb antibody collection.